Molecular target: hSERT (Homo sapiens, UniProt P31645)
Assay: oscillating stimulus transporter assay

Sequences of proteins named here, by UniProt entry; tags and fusion partners are left off.
UniProt P31645, whole entry: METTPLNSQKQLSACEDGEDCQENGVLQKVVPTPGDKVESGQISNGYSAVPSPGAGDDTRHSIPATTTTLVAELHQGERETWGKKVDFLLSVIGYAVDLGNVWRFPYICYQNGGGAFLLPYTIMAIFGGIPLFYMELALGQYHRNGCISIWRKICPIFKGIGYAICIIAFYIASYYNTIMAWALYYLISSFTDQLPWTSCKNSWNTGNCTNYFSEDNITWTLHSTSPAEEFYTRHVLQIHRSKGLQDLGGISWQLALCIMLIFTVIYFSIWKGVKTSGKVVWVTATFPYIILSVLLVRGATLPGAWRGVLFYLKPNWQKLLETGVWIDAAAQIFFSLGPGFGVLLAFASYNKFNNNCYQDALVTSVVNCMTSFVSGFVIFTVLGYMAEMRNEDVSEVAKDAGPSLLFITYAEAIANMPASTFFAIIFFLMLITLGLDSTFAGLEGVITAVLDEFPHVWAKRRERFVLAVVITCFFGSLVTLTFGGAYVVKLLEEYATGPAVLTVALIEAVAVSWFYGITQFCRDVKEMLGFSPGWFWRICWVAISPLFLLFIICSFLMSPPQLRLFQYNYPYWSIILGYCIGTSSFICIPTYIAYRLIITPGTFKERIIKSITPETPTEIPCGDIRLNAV

**Q.** Which results are given for `[Na]` [sodium]?
**A.** Hill coefficient for sodium in 5-HT uptake: 1.9 ± 0.1; Km (read-out: hSERT Km for sodium in 5-HT uptake): 6.5 ± 0.1 mM
